Amino acid sequences for entries named in this document (tags omitted). A change or cut given only in a name is not applied to a line headed by its entry.
UniProt P97266, whole entry, looked up: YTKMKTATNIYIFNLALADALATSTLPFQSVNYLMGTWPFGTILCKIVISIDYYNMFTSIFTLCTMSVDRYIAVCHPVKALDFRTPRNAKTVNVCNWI
UniProt P41144: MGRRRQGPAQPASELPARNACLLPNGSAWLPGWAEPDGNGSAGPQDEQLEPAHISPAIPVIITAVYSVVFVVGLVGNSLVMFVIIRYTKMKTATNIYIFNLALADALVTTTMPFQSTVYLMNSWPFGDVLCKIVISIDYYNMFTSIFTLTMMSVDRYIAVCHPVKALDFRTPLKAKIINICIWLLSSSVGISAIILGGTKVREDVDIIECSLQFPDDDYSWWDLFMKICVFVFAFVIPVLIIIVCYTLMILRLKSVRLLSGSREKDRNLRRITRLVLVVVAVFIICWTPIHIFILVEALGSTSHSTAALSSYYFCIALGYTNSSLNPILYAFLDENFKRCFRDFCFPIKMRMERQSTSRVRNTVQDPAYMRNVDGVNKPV

In ChEMBL document CHEMBL1126112 (J Med Chem, 1992):

Tests used:
Mu-type opioid receptor = Mu-type opioid receptor (Cavia porcellus, UniProt P97266); experiment: Tested for inhibitory effect on binding of [3H]DAMGO to opioid receptor mu in guinea pig cerebellum membranes
Cavia porcellus = organism: Cavia porcellus; experiment: Tested for naloxone pA2 activity in guinea pig ileum; type: functional
[1] = molecular target: Kappa-type opioid receptor (Cavia porcellus, UniProt P41144); experiment: Tested for inhibitory effect on binding of [3H]bremazocine to opioid receptor kappa in guinea pig cerebellum membranes

| SMILES | Ki (Mu-type opioid receptor) [nM] | Activity (Cavia porcellus) | Ki [1] [nM] |
| --- | --- | --- | --- |
| CN(C(=O)Cc1ccc(Cl)c(Cl)c1)C1CCCCC1N1CCCC1 (stereo not given) | 206 | 7 | 1.16 |
| CN(C(=O)Cc1ccccc1)[C@H]1CC[C@@]2(CCCO2)C[C@@H]1N1CCCC1 | 551 |  | 1.06 |
